Amino acid sequences for entries named in this document (tags omitted).
UniProt Q9UM07, whole entry: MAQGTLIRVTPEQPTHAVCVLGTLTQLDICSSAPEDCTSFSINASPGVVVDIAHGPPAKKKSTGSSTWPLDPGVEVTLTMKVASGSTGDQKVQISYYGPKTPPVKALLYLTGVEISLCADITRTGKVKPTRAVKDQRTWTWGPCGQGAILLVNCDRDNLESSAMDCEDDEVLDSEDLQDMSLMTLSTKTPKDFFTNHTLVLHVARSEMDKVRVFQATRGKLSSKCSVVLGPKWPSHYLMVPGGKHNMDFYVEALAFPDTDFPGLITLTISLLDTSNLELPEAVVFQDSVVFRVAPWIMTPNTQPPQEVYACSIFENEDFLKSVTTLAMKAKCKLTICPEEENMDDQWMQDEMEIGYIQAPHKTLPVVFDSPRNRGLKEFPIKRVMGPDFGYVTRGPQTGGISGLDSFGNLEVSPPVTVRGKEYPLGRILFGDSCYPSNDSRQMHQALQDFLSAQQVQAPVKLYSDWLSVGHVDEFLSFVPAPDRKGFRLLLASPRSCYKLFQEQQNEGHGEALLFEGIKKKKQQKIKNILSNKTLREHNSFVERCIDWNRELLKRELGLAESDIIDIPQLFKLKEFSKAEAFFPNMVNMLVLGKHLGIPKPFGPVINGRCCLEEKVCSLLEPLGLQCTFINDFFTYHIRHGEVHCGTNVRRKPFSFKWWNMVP

According to patent US8007996B2, “Methods to identify protein arginine deiminase 4 inhibitors” (University of South Carolina, priority 2007, dated 2011):

Key:
[1] = biological target: T1, PAD4 (Homo sapiens, UniProt Q9UM07); assay: Standard PAD4 assay (citrulline formation from BAEE), IC50 studies; type: biochemical
T1 construct: made in house
Description: Reactions were quenched by flash freezing in liquid N2. The amount of Cit produced was then quantified according to methods known in the art. […] Inhibition Studies.

[2] = biological target: T1, PAD4; assay: Inhibition studies: kinetic analysis of PAD4 activity versus BAEE concentration; type: biochemical; conditions: BAEE 0-20 mM, 0.2 μM PAD4; read-out: Kis
Procedure: PAD4 activity was measured as a function of substrate concentration in the absence and presence of increasing concentrations of each inhibitor.
Briefly, the compounds were incubated in Reaction Buffer containing various concentrations of BAEE (0-20 mM) for 10 minutes at 37° C. PAD4 (0.2 μM) was then added to initiate the reaction and allowed to proceed for 6 additional minutes. Reactions were then quenched by flash freezing in liquid N2 and the amount of Cit produced was quantified.
[formula] using GraFit version 5.0.11.

IC50 ([1]; 1 mM BAEE, 0.2 μM PAD4, 15 min pre-incubation at 37° C.): 550 ± 70 µM
IC50 ([1]; standard assay): 100 µM
Ki [2]: 540 ± 530 µM
Structure (SMILES): CN(C)[C@H]1C(O)=C(C(N)=O)C(=O)C2(O)C(O)=C3C(=O)c4c(O)ccc(Cl)c4C(C)(O)C3CC12 (stereo partly drawn) [Chlortetracycline]
